In PubChem BioAssay AID493208 (National Center for Advancing Translational Sciences (NCATS), 2011):
The entries are a selection whose mix differs from that of the whole data set. Records with an inconclusive call do not appear. Activity calls are given as the source filed them. Calls follow the shape of the dose curve; as a rule, active = well fitted inhibition curve with a large enough effect; inconclusive = small, poorly fitted or top-dose-only effect; inactive = flat fitted curve, though single readings scatter.

assay: Acumen qHTS Assay for Inhibitors of the mTORC1 Signaling Pathway in MEF (Tsc2-/-, p53-/-) Cells: Sytravon; details: phospho-rpS6 immunofluorescence/PI, 24 h; at 38.3 µM (top of the series);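 also: plate controls were DMSO for no effect and rapamycin for full effect; nearly all actives have a fitted effect of over 50% in size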
Source text: NIH Molecular Libraries Probe Production Centers Network [MLPCN] NIH Chemical Genomics Center [NCGC] MLPCN Grant: NS059428-01 Assay Submitter (PI): Blenis, John; Hoffman, Greg; Harvard University NCGC Assay Overview: The mammalian target of rapamycin (mTOR) is an intracellular serine/threonine kinase Aberrant regulation of mTOR signaling plays a causative role in a number of human diseases, including cancer, benign tumors such as lymphangioleiomyomatosis (LAM) and Tuberous Sclerosis Complex (TSC), and metabolic diseases such as diabetes and obesity. This project aims to identify inhibitors of ribosomal protein S6 (rpS6) phosphorylation. The phosphorylation of rpS6 is a key event downstream of mTOR activation. The assay uses a phospho-specific antibody of phospho-rpS6 to detect inhibitors of mTOR activation. Mutations in the Tsc1 and Tsc2 genes are the underlying genetic lesions responsible for TSC, causing constitutive activation of the mTORC1 pathway and leading to profound effects on cell metabolism. Aberrant metabolism in cancer has recently received significant attention as a target to develop therapeutic agents in the treatment of cancer.1 As Tsc2-/- cells have lost the ability to respond to energy and growth factor deprivation, these cells are unable to properly down regulate cellular biosynthetic processes in response to metabolic stress, and are thus extremely sensitive to glucose deprivation-induced death.2 A central goal of this project is to explore the unique cell survival and metabolic properties of cells with Tsc1 or Tsc2 by screening for compounds that selectively target the Tsc2-/- MEFs by screening both Tsc2-/- and WT MEF cell lines. We hope to better understand these aspects of TSC physiology in order to exploit them for therapeutic benefit.
NCGC Acumen Assay Protocol Summary: For quantitative high throughput analysis of mTORC1 signaling, we developed a cell-based assay for immuno-fluorescence based detection of rpS6 phosphorylation on the Acumen Explorer that will be used a platform for the primary small molecule screen. Mouse embryonic fibroblasts (MEFs) are cultured in 1536-well plates using DMEM + 10% FBS. Twenty-four hrs after plating, test compounds (solubilized in DMSO) are delivered and incubated with the cells for 24 hrs at 37 degree Celsius. Following the incubation, media with compound is aspirated and the cells are fixed in 4% paraformaldehyde (PFA) containing PBS + 0.2% TX-100. Next, PFA is aspirated, cells are washed two times with PBS plus 0.2% TX-100 and the cells are blocked for 1 hr at room temperature (blocking buffer: LiCOR Blocking Buffer plus 0.2% TX-100). […] Cells are washed two times with PBS plus 0.2% TX-100, and stained with 10 uM propidium iodide (PI) for 20-25 minutes for cell number measurement (1:500 dilution of Hoescht staining is also added for IN Cell imaging). The plates are scanned on the Acumen Explorer laser scanning instrument (TTP Labtech) using the 488nm laser for simultaneous excitation of the Alexa-488 and PI. […] The normalized phospho-S6 staining is calculated as the ratio of the integrated Alexa 488 intensity divided by the integrated PI intensity for the single concentration rapamycin control (7.5 nM) and DMSO columns. […] Inhibition of the pathway is defined based on the normalized phospho-S6 intensity in rapamycin treated cells. Active cells are defined as those with a normalized phospho-S6 staining above this threshold, and each treatment is reported as the % positive cells in the well, where thresholds are defined by selecting wells with the highest and lowest signal and differentiating between the % non-active and % active populations. In addition to the pathway specific phospho-S6 endpoint, the number of PI stained cells from the Acumen is recorded as a measure of cell viability. The primary screen was performed with a MEF cell line in a defined genetic background, Tsc2-/-, p53-/- cell line stably transfected with an empty vector control (Tsc2-/- MEF).

SMILES	activity change, negative = inhibition
O=C(NCC1(N2CCOCC2)CCCCC1)c1ccccc1[N+](=O)[O-]	inactive: 1.49%
O=C(NCC1(N2CCOCC2)CCCCC1)c1ccc([N+](=O)[O-])cc1	inactive: -12%
O=C(NCC1(N2CCOCC2)CCCCC1)c1ccccc1	inactive: -5.75%
Cc1ccccc1C(=O)NCC1(N(C)C)CCCCC1	inactive: -0.911%
CC(C)(C)c1ccc(C(=O)NCC2(N3CCOCC3)CCCCC2)cc1	inactive: -8.52%
COc1cc(C(=O)NCC2(N3CCOCC3)CCCCC2)cc(OC)c1OC	inactive: -2.01%
COc1ccccc1C(=O)NCC1(N2CCOCC2)CCCCC1	inactive: -0.153%
O=C(NCC1(N2CCOCC2)CCCCC1)c1ccc(Cl)cc1	inactive: -1.28%
CCOc1ccc(C(=O)NCC2(N3CCOCC3)CCCCC2)cc1	inactive: 0%
CCCOc1cccc(C(=O)NCC2(N3CCOCC3)CCCCC2)c1	inactive: -7.01%
O=C(NCC1(N2CCOCC2)CCCCC1)c1ccccc1Br	inactive: -0.948%
CCCCOc1ccccc1C(=O)NCC1(N2CCOCC2)CCCCC1	inactive: -21.6%
